Source: patent publication US11185516B2 (Laboratorios Silanes S.A. DE C.V., priority 2016, dated 2021)
Structures can show the parent of a compound that is named as a salt. Where two headings read alike, the source gives them in different places.

[1] = 620 mg vs metformin hydrochloride 1000 mg
[2] = 2480 mg vs metformin hydrochloride 1000 mg

| SMILES | Ln AUC0∝, differences attributed to the formula factor [1] | Ln AUCt0, differences attributed to the formula factor [1] | Ln Cmax, differences attributed to the formula factor [1] | bioequivalence (90% C.I. of Cmax, AUCt0, AUC0∞ vs 80%-125%) [1] | Ln AUC0∝, differences attributed to the formula factor [2] | bioequivalence (90% C.I. of Cmax, AUCt0, AUC0∞ vs 80%-125%) [2] | Tmax, comparative analysis (2480 mg vs metformin hydrochloride 1000 mg, single dose) | gastrointestinal adverse reaction (administered without food) | Ln AUCt0, differences attributed to the formula factor [2] |
| --- | --- | --- | --- | --- | --- | --- | --- | --- | --- |
| CN(C)C(=N)N=C(N)N [Metformin glycinate, N,N-dimethylimidodicarbonimidic diamide glycinate] | statistically significant differences | statistically significant differences | statistically significant differences | slight suprabioequivalence | statistically significant differences | infrabioequivalence | statistically significant differences | no detectable gastrointestinal adverse reaction |  |
| CN(C)C(=N)N=C(N)N [Metformin hydrochloride, metformin hydrochloride, reference compound] |  |  |  |  |  |  |  |  | statistically significant differences |
